Results published in ChEMBL document CHEMBL1148502, “Carbonic anhydrase inhibitors: inhibition of the cytosolic human isozyme VII with anions” (Bioorg Med Chem Lett, 2006).

Amino acid sequences for entries named in this document (tags omitted). A change or cut given only in a name is not applied to a line headed by its entry.
UniProt P43166: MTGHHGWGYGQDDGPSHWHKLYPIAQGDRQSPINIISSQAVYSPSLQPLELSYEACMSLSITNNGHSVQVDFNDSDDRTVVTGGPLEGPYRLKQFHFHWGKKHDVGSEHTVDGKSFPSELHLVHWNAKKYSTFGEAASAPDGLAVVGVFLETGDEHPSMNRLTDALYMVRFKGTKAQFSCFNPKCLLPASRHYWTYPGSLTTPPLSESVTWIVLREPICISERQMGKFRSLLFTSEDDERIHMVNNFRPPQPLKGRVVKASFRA

Target: Carbonic anhydrase 7 (Homo sapiens, UniProt P43166)

In the case of O=[As](O)(O)c1ccccc1, the Ki is reported as 12.5 µM.
